Experimental data from patent publication US8772480B2, “Inhibitors of PI3 kinase and/or mTOR” (priority 2009, dated 2014).

Target: mammalian target of rapamycin (mTOR) (Homo sapiens (Human), UniProt P42345)
Settings: read-out: mTOR IC50

| Structure (SMILES) | IC50 [nM] |
| --- | --- |
| COc1ncc(Nc2ncc(C(C)(C)N3CCOCC3)cc2-c2nc(C)nc(N)n2)cc1F [Example 281, 4-(2-(5-Fluoro-6-Methoxypyridin-3-Ylamino)-5-(2-Morpholinopropan-2-yl)Pyridin-3-yl)-6-Methyl-1,3,5-Triazin-2-Amine] | > 10000 |
| COc1ccc(Nc2ncc(C3(N4CCN(S(C)(=O)=O)CC4)CC3)cc2-c2nc(C)nc(N)n2)cn1 [Example 282, 4-(2-(6-Methoxypyridin-3-Ylamino)-5-(1-(4-(Methylsulfonyl)Piperazin-1-yl)Cyclopropyl)Pyridin-3-yl)-6-Methyl-1,3,5-Triazin-2-Amine] | > 10000 |
| COc1ncc(Nc2ncc(C(C)N3CCN(S(C)(=O)=O)CC3)nc2-c2cc(N)nc(C)n2)cc1F (stereo not drawn) [Example 283, 6-(3-(5-Fluoro-6-Methoxypyridin-3-Ylamino)-6-(1-(4-(Methylsulfonyl)Piperazin-1-yl)Ethyl)Pyrazin-2-yl)-2-Methylpyrimidin-4-Amine] | > 10000 |
| COc1ncc(Nc2ncc(C(C)(C)O)nc2-c2cc(N)nc(C)n2)cc1F [Example 284, 2-(6-(6-Amino-2-Methylpyrimidin-4-yl)-5-(5-Fluoro-6-Methoxypyridin-3-Ylamino)Pyrazin-2-yl)Propan-2-ol] | > 10000 |
| COc1ccc(Nc2ncc(C(C)=O)nc2-c2cc(N)nc(C)n2)cn1 [Example 285, 1-(6-(6-Amino-2-Methylpyrimidin-4-yl)-5-(6-Methoxypyridin-3-Ylamino)Pyrazin-2-yl)Ethanone] | > 10000 |
| COc1ccc(Nc2ncc(C(C)N3CCN(S(C)(=O)=O)CC3)nc2-c2cc(N)nc(C)n2)cn1 (stereo not drawn) [Example 286, 6-(3-(6-Methoxypyridin-3-Ylamino)-6-(1-(4-(Methylsulfonyl)Piperazin-1-yl)Ethyl)Pyrazin-2-yl)-2-Methylpyrimidin-4-Amine] | 1950 |
| Cc1nc(N)nc(-c2cc([C@@H](C)N3CCN(S(C)(=O)=O)CC3)cnc2Nc2cc(F)c3cccnc3c2)n1 [Example 287, (R)—N-(3-(4-Amino-6-Methyl-1,3,5-Triazin-2-yl)-5-(1-(4-(Methylsulfonyl)Piperazin-1-yl)Ethyl)Pyridin-2-yl)-5-Fluoroquinolin-7-Amine] | > 10000 |
| Cc1nc(N)nc(-c2cc(C(C)N3CCOCC3)cnc2Nc2ccc3scnc3c2)n1 (stereo not drawn) [Example 288, N-(3-(4-Amino-6-Methyl-1,3,5-Triazin-2-yl)-5-(1-Morpholinoethyl)Pyridin-2-yl)Benzo[D]Thiazol-5-Amine] | 239 |
| Cc1nc(N)nc(-c2cc(C(C)N3CCN(C(=O)N(C)C)CC3)cnc2Nc2ccc3scnc3c2)n1 (stereo not drawn) [Example 289, 4-(1-(5-(4-Amino-6-Methyl-1,3,5-Triazin-2-yl)-6-(Benzo[D]Thiazol-5-Ylamino)Pyridin-3-yl)Ethyl)-N,N-Dimethylpiperazine-1-Carboxamide] | 326 |
| Cc1nc(N)nc(-c2cc(C(C)N3CCN(S(C)(=O)=O)CC3)cnc2Nc2ccc3scnc3c2)n1 (stereo not drawn) [Example 290, N-(3-(4-Amino-6-Methyl-1,3,5-Triazin-2-yl)-5-(1-(4-(Methylsulfonyl)Piperazin-1-yl)Ethyl)Pyridin-2-yl)Benzo[D]Thiazol-5-Amine] | 202 |
| Cc1nc(N)nc(-c2cc([C@@H](C)N3CCN(S(C)(=O)=O)C[C@@H]3C)cnc2Nc2ccc3scnc3c2)n1 [Example 293, N-(3-(4-Amino-6-Methyl-1,3,5-Triazin-2-yl)-5-((R)-1-((S)-2-Methyl-4-(Methylsulfonyl)Piperazin-1-yl)Ethyl)Pyridin-2-yl)Benzo[D]Thiazol-5-Amine] | 252 |
| COc1ncc(Nc2ncc(C(C)N3CCN(C(=O)N(C)C)CC3)cc2-c2nc(C)nc(N)n2)cc1F (stereo not drawn) [Example 294, 4-(1-(5-(4-Amino-6-Methyl-1,3,5-Triazin-2-yl)-6-(5-Fluoro-6-Methoxypyridin-3-Ylamino)Pyridin-3-yl)Ethyl)-N,N-Dimethylpiperazine-1-Carboxamide] | > 10000 |
